Values of other authors as cited in US20080063637A1, “Regulation of oncogenesis by Akt-specific isoforms” (The Trustees of Tufts College, priority 2006, published 2008).

Sequences of proteins named here, by UniProt entry; tags and fusion partners are left off.
UniProt P31749, whole entry: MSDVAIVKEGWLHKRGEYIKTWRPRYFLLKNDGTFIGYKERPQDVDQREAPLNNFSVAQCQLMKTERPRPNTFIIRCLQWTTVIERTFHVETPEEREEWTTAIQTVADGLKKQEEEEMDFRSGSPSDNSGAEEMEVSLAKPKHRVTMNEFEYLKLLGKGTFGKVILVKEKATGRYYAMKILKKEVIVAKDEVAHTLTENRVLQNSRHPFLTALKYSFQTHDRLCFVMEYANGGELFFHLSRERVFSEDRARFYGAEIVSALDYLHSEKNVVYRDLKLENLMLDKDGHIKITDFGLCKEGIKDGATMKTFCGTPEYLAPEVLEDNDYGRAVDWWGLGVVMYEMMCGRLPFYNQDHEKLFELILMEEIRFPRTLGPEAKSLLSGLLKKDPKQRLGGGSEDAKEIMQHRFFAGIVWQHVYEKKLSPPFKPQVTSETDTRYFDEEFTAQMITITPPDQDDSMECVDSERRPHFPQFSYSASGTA

Key:
Akt1 = Akt1 (Homo sapiens, UniProt P31749); conditions: read-out: IC50 Akt1 kinase inhibition; HTRF assay; Barnett et al. 2005
[1] = test system: corresponding Akt isoforms (phosphorylation by PDK1); conditions: Barnett et al. 2005
[2] = test system: LNCap prostate cancer cells; conditions: Barnett et al. 2005

IC50 (Akt1): 4.6 µM
SMILES: CN(C)CC(C)(C)CNc1nn2c(-c3ccccc3)nnc2cc1C1CCC1
phosphorylation and activation of the corresponding Akt isoforms by PDK1 [1]: blocked
TRAIL-induced apoptosis [2]: promote
